According to patent US20220184231A1, “CLOSED-ENDED DNA (CEDNA) AND IMMUNE MODULATING COMPOUNDS” (Generation Bio Co., priority 2019, published 2022):

Test: Body weight of treated CD-1 mice after LNP-ceDNA administration
Conditions: male CD-1 mice, LNP-encapsulated ceDNA vector 0.5 mg/kg i.v. tail vein, co-administered agent; relative to polyC group; days 0-28
Experimental: A ceDNA vector encoding luciferase as the transgene (e.g., SEQ ID NO: 56), with a wild-type AAV2 left ITR and a mutant right ITR and a hAAT promoter, methylated to eliminate free CpG, was used. The ceDNA vector was prepared as described above. […] Four replicates were included in each sample group. Body weights were recorded on days 0, 1, 2, 3, 7, 14, 21 and 28. In-life imaging was performed on days 4, 7, 14, 21, and 28 using an in vivo imaging system (IVIS). For the imaging, each mouse was injected with luciferin at 150 mg/kg via intraperitoneal injection at 2.5 mL/kg. After 15 minutes, each mouse was anaesthetized and imaged.

dexamethasone palmitate
body weight loss: significantly attenuated
